# Earlier results in patent US20250235394A1, “BIOFILM-TARGETING NANOPARTICLES TO INCREASE THE […] OF FLUORIDE” (The Regents of The University of Michigan, priority 2021, published 2025).
substance,measurement,value
stannous fluoride,solubility in water (dissolves up to a concentration of),"42,000 ppm F"
